Key:
[1] = molecular target: T1, TNKS1 (Homo sapiens, UniProt O95271); test: TNKS1 biochemical assay; conditions: mean ± SD
T1 sequence (O95271 1-1327): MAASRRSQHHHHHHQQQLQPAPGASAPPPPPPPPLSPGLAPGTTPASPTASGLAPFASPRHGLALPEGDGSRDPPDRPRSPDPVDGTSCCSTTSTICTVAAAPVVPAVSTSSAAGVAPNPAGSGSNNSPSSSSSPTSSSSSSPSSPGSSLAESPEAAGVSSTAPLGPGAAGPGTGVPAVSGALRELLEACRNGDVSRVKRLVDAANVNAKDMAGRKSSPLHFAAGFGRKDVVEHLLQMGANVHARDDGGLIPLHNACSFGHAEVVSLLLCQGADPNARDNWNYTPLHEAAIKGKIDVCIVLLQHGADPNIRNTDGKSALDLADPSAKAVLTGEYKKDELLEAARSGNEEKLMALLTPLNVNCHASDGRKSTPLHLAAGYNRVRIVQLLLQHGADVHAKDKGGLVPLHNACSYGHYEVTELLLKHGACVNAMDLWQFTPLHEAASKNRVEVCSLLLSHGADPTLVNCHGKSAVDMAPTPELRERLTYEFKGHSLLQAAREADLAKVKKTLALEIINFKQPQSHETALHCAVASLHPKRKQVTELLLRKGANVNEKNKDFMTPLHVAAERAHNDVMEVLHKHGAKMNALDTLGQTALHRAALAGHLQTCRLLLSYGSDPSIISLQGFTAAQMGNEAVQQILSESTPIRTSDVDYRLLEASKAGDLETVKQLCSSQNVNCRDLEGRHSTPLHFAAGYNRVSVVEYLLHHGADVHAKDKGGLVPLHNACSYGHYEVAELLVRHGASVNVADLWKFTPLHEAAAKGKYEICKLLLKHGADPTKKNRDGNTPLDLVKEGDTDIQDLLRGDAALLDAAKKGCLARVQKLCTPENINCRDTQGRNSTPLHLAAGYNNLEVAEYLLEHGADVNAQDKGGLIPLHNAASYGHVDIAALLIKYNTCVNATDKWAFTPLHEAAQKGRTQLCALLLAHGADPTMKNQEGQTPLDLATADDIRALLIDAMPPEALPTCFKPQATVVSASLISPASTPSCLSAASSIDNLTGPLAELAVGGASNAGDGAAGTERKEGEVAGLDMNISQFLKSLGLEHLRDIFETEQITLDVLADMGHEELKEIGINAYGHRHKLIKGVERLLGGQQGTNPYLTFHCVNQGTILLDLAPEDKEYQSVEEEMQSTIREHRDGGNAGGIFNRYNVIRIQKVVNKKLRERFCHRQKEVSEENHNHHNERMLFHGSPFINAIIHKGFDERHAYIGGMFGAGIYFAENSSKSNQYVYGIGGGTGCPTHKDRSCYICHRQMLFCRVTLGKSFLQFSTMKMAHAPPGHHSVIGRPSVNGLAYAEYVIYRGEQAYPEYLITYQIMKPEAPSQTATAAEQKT

Amino acid sequences for entries named in this document (tags omitted).
UniProt P09874, whole entry: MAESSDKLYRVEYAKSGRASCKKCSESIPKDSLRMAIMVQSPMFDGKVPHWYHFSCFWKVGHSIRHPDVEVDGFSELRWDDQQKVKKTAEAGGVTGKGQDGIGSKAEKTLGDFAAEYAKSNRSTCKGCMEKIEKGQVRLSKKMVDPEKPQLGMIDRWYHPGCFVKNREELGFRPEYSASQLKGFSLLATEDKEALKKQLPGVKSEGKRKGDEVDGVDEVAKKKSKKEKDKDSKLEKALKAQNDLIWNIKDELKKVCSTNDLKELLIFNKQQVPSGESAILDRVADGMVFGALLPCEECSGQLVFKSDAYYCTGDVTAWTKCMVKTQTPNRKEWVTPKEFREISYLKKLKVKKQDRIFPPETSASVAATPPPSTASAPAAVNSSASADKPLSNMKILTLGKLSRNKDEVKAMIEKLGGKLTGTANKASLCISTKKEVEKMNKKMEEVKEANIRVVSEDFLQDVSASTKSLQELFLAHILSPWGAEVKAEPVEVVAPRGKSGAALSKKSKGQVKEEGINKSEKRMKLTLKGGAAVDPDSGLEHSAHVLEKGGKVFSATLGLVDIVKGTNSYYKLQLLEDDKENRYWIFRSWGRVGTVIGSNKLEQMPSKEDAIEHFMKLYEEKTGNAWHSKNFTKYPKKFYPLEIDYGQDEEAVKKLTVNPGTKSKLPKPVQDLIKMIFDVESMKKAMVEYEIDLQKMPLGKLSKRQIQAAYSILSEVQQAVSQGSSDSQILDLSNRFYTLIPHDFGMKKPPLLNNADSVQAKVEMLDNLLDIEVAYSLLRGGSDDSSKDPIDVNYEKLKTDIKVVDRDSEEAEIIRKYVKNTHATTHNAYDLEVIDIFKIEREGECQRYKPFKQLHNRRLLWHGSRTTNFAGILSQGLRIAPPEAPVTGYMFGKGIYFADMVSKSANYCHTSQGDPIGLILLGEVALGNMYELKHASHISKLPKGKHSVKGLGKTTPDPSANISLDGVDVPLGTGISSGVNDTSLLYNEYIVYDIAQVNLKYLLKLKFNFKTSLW

[2] = molecular target: T2, TNKS2 (Homo sapiens, UniProt Q9H2K2); test: TNKS2 biochemical assay; conditions: mean ± SD
T2 sequence (Q9H2K2 1-1166): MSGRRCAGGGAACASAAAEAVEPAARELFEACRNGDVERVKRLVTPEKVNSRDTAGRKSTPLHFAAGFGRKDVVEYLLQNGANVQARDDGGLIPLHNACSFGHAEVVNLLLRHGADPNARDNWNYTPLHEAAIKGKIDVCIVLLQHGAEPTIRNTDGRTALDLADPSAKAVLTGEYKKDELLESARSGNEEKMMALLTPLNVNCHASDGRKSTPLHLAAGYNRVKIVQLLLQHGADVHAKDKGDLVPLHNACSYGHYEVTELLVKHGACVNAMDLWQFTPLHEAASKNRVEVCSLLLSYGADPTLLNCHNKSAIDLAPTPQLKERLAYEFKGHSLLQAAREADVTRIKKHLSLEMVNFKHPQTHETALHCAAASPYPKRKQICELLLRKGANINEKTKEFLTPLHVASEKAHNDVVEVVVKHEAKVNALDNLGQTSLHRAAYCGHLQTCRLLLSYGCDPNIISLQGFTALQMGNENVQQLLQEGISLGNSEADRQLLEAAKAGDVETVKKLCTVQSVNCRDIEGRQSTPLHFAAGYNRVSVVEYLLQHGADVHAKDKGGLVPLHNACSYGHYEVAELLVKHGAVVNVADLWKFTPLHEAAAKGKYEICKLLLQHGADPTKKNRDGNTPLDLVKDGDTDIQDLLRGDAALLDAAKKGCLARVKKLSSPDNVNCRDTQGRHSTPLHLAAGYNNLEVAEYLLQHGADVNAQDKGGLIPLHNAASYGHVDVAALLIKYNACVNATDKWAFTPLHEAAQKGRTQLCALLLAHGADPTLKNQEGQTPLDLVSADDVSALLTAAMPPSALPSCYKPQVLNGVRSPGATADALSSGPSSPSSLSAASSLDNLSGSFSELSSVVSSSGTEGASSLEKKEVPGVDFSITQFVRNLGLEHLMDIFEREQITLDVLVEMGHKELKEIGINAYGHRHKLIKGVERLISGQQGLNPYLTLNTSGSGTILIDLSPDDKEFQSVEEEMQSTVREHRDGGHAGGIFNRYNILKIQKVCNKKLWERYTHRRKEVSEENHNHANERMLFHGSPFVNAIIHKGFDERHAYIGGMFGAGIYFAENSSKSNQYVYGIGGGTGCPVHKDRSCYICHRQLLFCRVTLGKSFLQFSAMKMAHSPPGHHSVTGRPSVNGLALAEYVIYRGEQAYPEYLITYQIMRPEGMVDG

[3] = molecular target: PARP1 (Homo sapiens, UniProt P09874); test: PARP1 biochemical assay
[4] = system: NCI-60 tumor cell line panel; test: NCI-60 human cancer cell line proliferation/viability screen; format: cell-based; conditions: 10 nmol/L, 48 hours

Structure (SMILES) | IC50 [1] | IC50 [2] | IC50 [3] | number of the 60 tested cancer cell lines showing >25% relative growth inhibition [4]
Cc1cc(N2C[C@@H](C)N[C@@H](C)C2)ncc1-c1ccc(-c2nc3c(ccn3C)c(=O)[nH]2)cc1 [AZ6102] | 12 ± 1.2 nM | 2.5 ± 0.3 nM | 1500 nM | –
CCOc1ccc(-c2nnc([C@H]3C[C@H](NC(=O)c4cccc5nccnc45)C3)n2-c2ccccc2F)nc1 [OM-153] | – | – | – | 16
